# In article PMC6127270 (Frontiers in Pharmacology, 2018):
# Chains of the proteins cited; added tags and fusions are not shown. Lines headed by an entry give the natural chain unless they say otherwise; changes in a name come on top.
# UniProt P41145: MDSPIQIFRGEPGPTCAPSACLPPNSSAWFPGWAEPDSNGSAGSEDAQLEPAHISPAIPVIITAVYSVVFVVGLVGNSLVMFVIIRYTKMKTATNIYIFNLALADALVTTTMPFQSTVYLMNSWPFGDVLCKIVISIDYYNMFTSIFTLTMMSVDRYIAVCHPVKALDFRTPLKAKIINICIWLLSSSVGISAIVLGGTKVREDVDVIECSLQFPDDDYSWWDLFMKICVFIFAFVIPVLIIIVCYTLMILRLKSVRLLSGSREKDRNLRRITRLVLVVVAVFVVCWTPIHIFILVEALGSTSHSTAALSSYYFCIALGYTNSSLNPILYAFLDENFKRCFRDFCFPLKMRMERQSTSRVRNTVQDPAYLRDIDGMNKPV
# Molecular target: human KOR (Homo sapiens, UniProt P41145)
# Test: [35S]GTPγS binding, CHO-hKOR membranes
# Type: biochemical
substance,measurement,setting,value
"5α,7α,8β-(-)N-methyl-N-[7-(1-pyrrolidinyl)-1-oxaspiro(4,5) dec-8-yl]benzeneacetamide",EC50,"read-out: [35S]GTPγS Binding KOR EC50, CHO-hKOR membranes",16.7 nM
same,[35S]GTPγS Binding KOR % stim.,"relative to U69,593",100%
